This passage reports Ki results from ChEMBL document CHEMBL2406958, “Development of a chimeric c-Src kinase and HDAC inhibitor” (ACS Med Chem Lett, 2013).

Amino acid sequences for entries named in this document (tags omitted). A change or cut given only in a name is not applied to a line headed by its entry.
UniProt P12931: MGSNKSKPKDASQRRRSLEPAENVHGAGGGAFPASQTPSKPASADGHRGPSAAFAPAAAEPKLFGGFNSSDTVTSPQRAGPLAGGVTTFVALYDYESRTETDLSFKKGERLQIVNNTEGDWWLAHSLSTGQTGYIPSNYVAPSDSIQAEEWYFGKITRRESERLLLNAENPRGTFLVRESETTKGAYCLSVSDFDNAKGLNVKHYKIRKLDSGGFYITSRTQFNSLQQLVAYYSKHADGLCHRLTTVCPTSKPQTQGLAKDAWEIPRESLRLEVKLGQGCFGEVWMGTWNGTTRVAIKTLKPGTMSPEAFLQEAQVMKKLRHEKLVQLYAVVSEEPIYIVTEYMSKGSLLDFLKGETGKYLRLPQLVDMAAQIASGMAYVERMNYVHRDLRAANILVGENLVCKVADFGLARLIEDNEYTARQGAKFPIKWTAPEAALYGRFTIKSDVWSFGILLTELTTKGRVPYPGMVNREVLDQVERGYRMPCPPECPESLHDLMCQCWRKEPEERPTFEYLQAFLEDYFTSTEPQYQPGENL

For this test, the target named is Proto-oncogene tyrosine-protein kinase Src (Homo sapiens, UniProt P12931). Briefly: Inhibition of c-Src (unknown origin) after 10 mins by fluorimetric assay.

The compound `Nc1ncnc2c1c(-c1ccc(Cl)cc1)nn2-c1cccc(-c2cnnn2CCCCCCCC(=O)NO)c1` registered a Ki of 407 nM.
The same measure for `Nc1ncnc2c1c(-c1ccc(Cl)cc1)nn2-c1cccc(-c2cnnn2Cc2cccc(/C=C/C(=O)NO)c2)c1`: 2140 nM.
